This data set concerns ICR male mice. The experiment in a line: Oral administration safety test in mice (mortality). Format: in vivo. The following applies: orally administered to ICR male mice, dose level of 100 mg/kg. The source says:
The compounds of Examples 1 and 2 were orally administered to ICR male mice grouped in fives.

As for “3-O-(4-Biphenyl)acetyl-5-O-desosaminyl-6-O-methylerythronolide A 11,12-Cyclic Carbonate [Compound of Example 1]”, the death entry is given as “No death was observed”.

The values are drawn from patent publication EP0771564A1, “INTERLEUKIN-5 PRODUCTION INHIBITOR” (TAISHO PHARMACEUTICAL CO. LTD, priority 1994, dated 1996).
